How the values were obtained:
Conditions in all cases: both partners purified
[1] = molecular target: T1, activin receptor type II (ActR-II) ectodomain, human (human, UniProt P27037 18-135, N-biotinylated (sulfo-NHS-LC-biotin) where immobilised); test: SPR; Biacore 2000; receptor ectodomains as analyte over biotinylated ligands on streptavidin-coated CM5 chips; HBS500, 25°C, 10 μl/min; apparent affinities, 1:1 interaction
T1 construct: also called hActR-II

[2] = molecular target: T2, BMP receptor II (BMPR-II) ectodomain, human (human, UniProt Q13873 32-150, N-biotinylated (sulfo-NHS-LC-biotin) where immobilised); test: SPR; Biacore 2000; ligands as analyte over biotinylated receptor ectodomains (about 200 RU) on streptavidin-coated CM5 chips; HBS500 (10 mM HEPES pH 7.4, 500 mM NaCl, 3.4 mM EDTA, 0.005% P20), 25°C, 10 μl/min; apparent affinities, 1:2 interaction with avidity
T2 construct: also called hBMPR-II
T2 sequence (looked up): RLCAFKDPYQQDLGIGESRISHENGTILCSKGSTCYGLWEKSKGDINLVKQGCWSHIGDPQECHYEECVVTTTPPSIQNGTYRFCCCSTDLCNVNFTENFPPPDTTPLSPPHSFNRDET

[3] = molecular target: T1, activin receptor type II (ActR-II) …; test: as above
[4] = molecular target: T1, activin receptor type II (ActR-II) …; test: SPR; ligands as analyte over immobilized receptor ectodomains, 0.36% CHAPS added to HBS500 buffer

- Kd [1]: 22000 nM
- koff [1]: > 0.1 s⁻¹
- koff [2]: 0.038 s⁻¹
- KD (kin) [3]: 20 nM
- Kd [3]: 32 nM
- koff [3]: 0.028 s⁻¹
- kon [3]: 1.4e+06 M⁻¹ s⁻¹
- fold decrease of binding with CHAPS against without CHAPS [4]: 30 fold
B1: growth and differentiation factor 5 (GDF5), mature part (ligand)
chain: MKRQGKRPSKNLKARCSRKALHVNFKDMGWDDWIIAPLEYEAFHCEGLCEFPLRSHLEPTNHAVIQTLMNSMDPESTPPTCCVPTRLSPISILFIDSANNVVYKQYEDMVVESCGCR
modifications: biotin (sulfo-NHS-LC-biotin) where immobilised
notes: N-terminal Met-Lys added to the mature part; dimeric ligand; source: E. coli, isolated from inclusion bodies, renatured and purified

From paper PMC2749821 (BMC Biology, 2009)
